{
  "source": "PubChem BioAssay (NCI)",
  "note": "Where “and” joins values, the source holds several entries; their conditions need not be identical. Equal values may be shown once. The list shows a part of the results, in another mix than the full data. Some structures show a salt or complex split into parts, the way the source records it. Calls of active or inactive are those of the source. Cut-off read from the data, not from the text of the source: active = growth inhibition above about 70%; inactive = the rest.",
  "data": [
    {"test": "NCI Yeast Anticancer Drug Screen. Data for the rad50 strain (AID 155);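 note: 0% = growth of vehicle-only cultures of the same strain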", "settings": "S. cerevisiae rad50 strain growth inhibition; at 50.0 µM; hits give high values", "values": [
      {"compound": "CCOC(=O)C(CCSC)Nc1nc2ccccc2o1.O=[N+]([O-])c1cc([N+](=O)[O-])c(O)c([N+](=O)[O-])c1", "note": "(centres undefined)", "growth inhibition": "inactive: 8.05%"},
      {"compound": "O=[N+]([O-])C(F)(CCNCC(F)([N+](=O)[O-])[N+](=O)[O-])[N+](=O)[O-]", "growth inhibition": "active: 90.8%"},
      {"compound": "CC1CN1.O=[N+]([O-])c1cc([N+](=O)[O-])c(S(=O)(=O)O)c([N+](=O)[O-])c1", "growth inhibition": "inactive: 21.1%"},
      {"compound": "CCC([N+](=O)[O-])[N+](=O)[O-]", "growth inhibition": "inactive: 13.8% and inactive: 14.9%"},
      {"compound": "COc1ccc2c3c1OC1C4(OC)C=CC5(CC4C(C)=O)[C@@H](C2)N(C)CC[C@]315", "note": "(some centres undefined)", "growth inhibition": "inactive: -2.45%"},
      {"compound": "NCc1ccccc1.O=[N+]([O-])c1cc([N+](=O)[O-])c(O)c([N+](=O)[O-])c1", "growth inhibition": "inactive: -2.95%"},
      {"compound": "COc1c([N+](=O)[O-])cc(Cc2cc([N+](=O)[O-])c(OC)c([N+](=O)[O-])c2)cc1[N+](=O)[O-]", "growth inhibition": "inactive: 14.2%"},
      {"compound": "C/C=C/Sc1ccccn1.O=[N+]([O-])c1cc([N+](=O)[O-])c(O)c([N+](=O)[O-])c1", "growth inhibition": "inactive: 37.6%"},
      {"compound": "O=[N+]([O-])c1cc([N+](=O)[O-])c(O)c([N+](=O)[O-])c1.SCCCc1cccnc1", "growth inhibition": "inactive: 1.9%"},
      {"compound": "Br.C[N+]12CCCN(CC1)CC2.O=[N+]([O-])c1cc([N+](=O)[O-])c(O)c([N+](=O)[O-])c1.[Br-]", "growth inhibition": "inactive: -3%"},
      {"compound": "CCOP(=O)(O)CC.[Eu]", "growth inhibition": "inactive: -2.4%"},
      {"compound": "OCCSCCO", "growth inhibition": "inactive: 51.8%"},
      {"compound": "CCN(CC)CCOC(=O)C(O)(c1ccccc1)c1ccc(OC)cc1", "note": "(centres undefined)", "growth inhibition": "inactive: 30.1%"},
      {"compound": "Cc1cc(N(CCCl)CCCl)ccc1C1OCCO1.[C-]#[O+].[C-]#[O+].[C-]#[O+].[Cr]", "growth inhibition": "inactive: -14.5%"},
      {"compound": "CCCCOP(=S)(S)OCCCC.[Hg]", "growth inhibition": "inactive: 30.4%"},
      {"compound": "O=C(CCN1CCCC(O)C1COC(=O)C(O)(c1ccccc1)c1ccccc1)NCc1ccccc1", "note": "(centres undefined)", "growth inhibition": "inactive: -25.4%"},
      {"compound": "CC(C)OP(C)(=O)O.[Tm]", "growth inhibition": "inactive: -4.6%"},
      {"compound": "CCN(CC)CCCN.O=[N+]([O-])c1cc([N+](=O)[O-])c(O)c([N+](=O)[O-])c1", "growth inhibition": "inactive: 8.9%"},
      {"compound": "O=[N+]([O-])c1cc([N+](=O)[O-])c(O)c([N+](=O)[O-])c1.c1ccc(C2CNCCN2)cc1", "growth inhibition": "inactive: 32.4%"},
      {"compound": "C=C1C(=O)C2CCN1CC2.O=[N+]([O-])c1cc([N+](=O)[O-])c(O)c([N+](=O)[O-])c1", "growth inhibition": "inactive: 23.2%"},
      {"compound": "CC(CO)NC1CCCC1.O=[N+]([O-])c1cc([N+](=O)[O-])c(O)c([N+](=O)[O-])c1", "growth inhibition": "inactive: 8.55%"},
      {"compound": "CN1CCC2(CC1)NC1CCN(C)CC1S2", "note": "(centres undefined)", "growth inhibition": "inactive: 29%"},
      {"compound": "Cc1ccc(N=[N-])cc1.[C-]#[O+].[Mo].[c-]1[c-][c-][cH-][c-]1.c1ccc([PH+](c2ccccc2)c2ccccc2)cc1", "growth inhibition": "inactive: -23.9%"},
      {"compound": "CN([PH+](F)F)[PH+](F)F.CN([PH+](F)F)[PH+](F)F.CN([PH+](F)F)[PH+](F)F.CN([PH+](F)F)[PH+](F)F.CN([PH+](F)F)[PH+](F)F.[Ni].[Ni]", "growth inhibition": "inactive: 24.6%"},
      {"compound": "Cc1ccc(N(C)C)cc1.O=[N+]([O-])c1cc([N+](=O)[O-])c(O)c([N+](=O)[O-])c1", "growth inhibition": "inactive: -1.85%"}
    ]},
    {"test": "NCI Yeast Anticancer Drug Screen. Data for the mec2-1 strain (AID 157)", "settings": "S. cerevisiae mec2-1 strain, at 50.0 µM, hits give high values", "values": [
      {"compound": "CS/C(=C/[S+](C)C)c1ccccc1.O=[N+]([O-])c1cc([N+](=O)[O-])c(S(=O)(=O)[O-])c([N+](=O)[O-])c1", "growth inhibition": "inactive: 24.2%"},
      {"compound": "CC(C)OP(C)(=O)O.[Tl]", "growth inhibition": "inactive: -0.05%"},
      {"compound": "COc1ccc([N+](=O)[O-])cc1[N+](=O)[O-]", "growth inhibition": "inactive: -5.3%"},
      {"compound": "N/C(=N\\[N+](=O)[O-])N(N)CCN(N)/C(N)=N/[N+](=O)[O-]", "growth inhibition": "inactive: 12.7%"},
      {"compound": "NN/C(N)=N/[N+](=O)[O-]", "growth inhibition": "inactive: -42.2%"},
      {"compound": "CCCCCCCCCCOP(=O)(Cl)CC", "note": "(centres undefined)", "growth inhibition": "inactive: -3.95%"},
      {"compound": "NCCO.O=[N+]([O-])c1cc([N+](=O)[O-])c(O)c([N+](=O)[O-])c1", "growth inhibition": "inactive: 11.5%"},
      {"compound": "COc1ccc2c3c1O[C@H]1C4(OC)CCC5(CC4C(C)(C)O)[C@@H](C2)N(C)CC[C@]315", "note": "(some centres undefined)", "growth inhibition": "inactive: -18.6%"},
      {"compound": "CCOP(C)(=S)Oc1ccc([N+](=O)[O-])cc1", "note": "(centres undefined)", "growth inhibition": "inactive: 10.1%"},
      {"compound": "CN/C(N)=N/[N+](=O)[O-]", "growth inhibition": "inactive: -11.2%"},
      {"compound": "[C-]#[O+].[Co].[c-]1[c-][c-][cH-][c-]1.c1ccc([PH+](c2ccccc2)c2ccccc2)cc1", "growth inhibition": "inactive: 5.65%"},
      {"compound": "COC(=O)C(C)(C)C(OP(C)(=O)OC)=C(C)C", "note": "(centres undefined)", "growth inhibition": "inactive: 0.65%"},
      {"compound": "O=[N+]([O-])c1cc([N+](=O)[O-])cc([N+](=O)[O-])c1.c1ccc(CCc2cccc3c2ccc2ccccc23)cc1", "growth inhibition": "inactive: -2.1%"},
      {"compound": "O=[N+]([O-])c1cc([N+](=O)[O-])c(NNc2c([N+](=O)[O-])cc([N+](=O)[O-])cc2[N+](=O)[O-])c([N+](=O)[O-])c1", "growth inhibition": "active: 98.4%"},
      {"compound": "CCOC(=O)C(CCSC)Nc1nc2ccccc2o1.O=[N+]([O-])c1cc([N+](=O)[O-])c(O)c([N+](=O)[O-])c1", "note": "(centres undefined)", "growth inhibition": "inactive: 5.1%"},
      {"compound": "O=[N+]([O-])C(F)(CCNCC(F)([N+](=O)[O-])[N+](=O)[O-])[N+](=O)[O-]", "growth inhibition": "active: 92.5%"},
      {"compound": "CC1CN1.O=[N+]([O-])c1cc([N+](=O)[O-])c(S(=O)(=O)O)c([N+](=O)[O-])c1", "growth inhibition": "inactive: 28.9%"},
      {"compound": "CCC([N+](=O)[O-])[N+](=O)[O-]", "growth inhibition": "inactive: 20.5% and inactive: 9.5%"},
      {"compound": "COc1ccc2c3c1OC1C4(OC)C=CC5(CC4C(C)=O)[C@@H](C2)N(C)CC[C@]315", "note": "(some centres undefined)", "growth inhibition": "inactive: -10.9%"},
      {"compound": "NCc1ccccc1.O=[N+]([O-])c1cc([N+](=O)[O-])c(O)c([N+](=O)[O-])c1", "growth inhibition": "inactive: -13.6%"},
      {"compound": "COc1c([N+](=O)[O-])cc(Cc2cc([N+](=O)[O-])c(OC)c([N+](=O)[O-])c2)cc1[N+](=O)[O-]", "growth inhibition": "inactive: -0.8%"},
      {"compound": "C/C=C/Sc1ccccn1.O=[N+]([O-])c1cc([N+](=O)[O-])c(O)c([N+](=O)[O-])c1", "growth inhibition": "inactive: 14.9%"},
      {"compound": "O=[N+]([O-])c1cc([N+](=O)[O-])c(O)c([N+](=O)[O-])c1.SCCCc1cccnc1", "growth inhibition": "inactive: -5.8%"},
      {"compound": "Br.C[N+]12CCCN(CC1)CC2.O=[N+]([O-])c1cc([N+](=O)[O-])c(O)c([N+](=O)[O-])c1.[Br-]", "growth inhibition": "inactive: 4.2%"},
      {"compound": "CCOP(=O)(O)CC.[Eu]", "growth inhibition": "inactive: -0.15%"},
      {"compound": "OCCSCCO", "growth inhibition": "inactive: 10.5%"},
      {"compound": "CCN(CC)CCOC(=O)C(O)(c1ccccc1)c1ccc(OC)cc1", "note": "(centres undefined)", "growth inhibition": "inactive: 22.4%"},
      {"compound": "Cc1cc(N(CCCl)CCCl)ccc1C1OCCO1.[C-]#[O+].[C-]#[O+].[C-]#[O+].[Cr]", "growth inhibition": "inactive: 20.1%"},
      {"compound": "CCCCOP(=S)(S)OCCCC.[Hg]", "growth inhibition": "inactive: 17.1%"},
      {"compound": "O=C(CCN1CCCC(O)C1COC(=O)C(O)(c1ccccc1)c1ccccc1)NCc1ccccc1", "note": "(centres undefined)", "growth inhibition": "inactive: -39.5%"},
      {"compound": "CC(C)OP(C)(=O)O.[Tm]", "growth inhibition": "inactive: 4.8%"},
      {"compound": "CCN(CC)CCCN.O=[N+]([O-])c1cc([N+](=O)[O-])c(O)c([N+](=O)[O-])c1", "growth inhibition": "inactive: 27.2%"},
      {"compound": "O=[N+]([O-])c1cc([N+](=O)[O-])c(O)c([N+](=O)[O-])c1.c1ccc(C2CNCCN2)cc1", "growth inhibition": "inactive: 23.1%"},
      {"compound": "C=C1C(=O)C2CCN1CC2.O=[N+]([O-])c1cc([N+](=O)[O-])c(O)c([N+](=O)[O-])c1", "growth inhibition": "inactive: 24.3%"},
      {"compound": "CC(CO)NC1CCCC1.O=[N+]([O-])c1cc([N+](=O)[O-])c(O)c([N+](=O)[O-])c1", "growth inhibition": "inactive: 1.5%"},
      {"compound": "CN1CCC2(CC1)NC1CCN(C)CC1S2", "note": "(centres undefined)", "growth inhibition": "inactive: -1%"},
      {"compound": "Cc1ccc(N=[N-])cc1.[C-]#[O+].[Mo].[c-]1[c-][c-][cH-][c-]1.c1ccc([PH+](c2ccccc2)c2ccccc2)cc1", "growth inhibition": "inactive: -14.1%"},
      {"compound": "CN([PH+](F)F)[PH+](F)F.CN([PH+](F)F)[PH+](F)F.CN([PH+](F)F)[PH+](F)F.CN([PH+](F)F)[PH+](F)F.CN([PH+](F)F)[PH+](F)F.[Ni].[Ni]", "growth inhibition": "inactive: 5.55%"},
      {"compound": "Cc1ccc(N(C)C)cc1.O=[N+]([O-])c1cc([N+](=O)[O-])c(O)c([N+](=O)[O-])c1", "growth inhibition": "inactive: -11.8%"}
    ]}
  ]
}
